Experimental findings from ChEMBL document CHEMBL3400079 (Bioorg Med Chem, 2015) are described below.

The target of this test is T1, AGAP002992-PA (Anopheles gambiae, UniProt Q5TU56).
T1 sequence (Q5TU56 whole entry): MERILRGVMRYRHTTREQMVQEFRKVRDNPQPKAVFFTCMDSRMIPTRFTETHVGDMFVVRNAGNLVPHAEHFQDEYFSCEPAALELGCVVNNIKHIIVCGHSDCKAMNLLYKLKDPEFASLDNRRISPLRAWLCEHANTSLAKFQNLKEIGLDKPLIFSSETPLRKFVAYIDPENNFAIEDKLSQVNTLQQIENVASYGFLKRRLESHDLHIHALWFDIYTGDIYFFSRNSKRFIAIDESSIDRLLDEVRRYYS

In the case of `NS(=O)(=O)c1ccc(C(=O)O)cc1` [CARZENIDE], affinity was put at a Ki of 0.703 µM.
